This is an account of results in patent US20180289802A1.

Amino acid sequences for entries named in this document (tags omitted). Residues count along the entry.
UniProt P12314, 16-374 limits assumed: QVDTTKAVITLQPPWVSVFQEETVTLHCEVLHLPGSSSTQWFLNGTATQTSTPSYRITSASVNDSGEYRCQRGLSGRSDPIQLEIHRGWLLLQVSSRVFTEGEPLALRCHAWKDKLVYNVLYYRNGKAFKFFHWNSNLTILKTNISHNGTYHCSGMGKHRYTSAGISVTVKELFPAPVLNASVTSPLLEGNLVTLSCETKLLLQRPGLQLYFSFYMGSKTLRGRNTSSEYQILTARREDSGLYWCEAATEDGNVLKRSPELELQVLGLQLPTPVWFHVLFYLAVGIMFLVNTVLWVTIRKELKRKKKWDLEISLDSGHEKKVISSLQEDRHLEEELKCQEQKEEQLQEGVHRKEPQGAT

For orientation: EC50 means the midpoint of the concentration-response curve. Lower therefore signals a more potent agent.

One test deals with FcγRI expressed on cells (UniProt P12314). In words: Cisbio Tag-lite displacement (FRET) on HEK293 cells expressing terbium-labelled FcγRI; competitor human IgG-d2.
The next test concerns the target FcγRIIb. Nature of the test: Cisbio Tag-lite displacement (FRET) on HEK293 cells expressing terbium-labelled FcγRIIb; competitor human IgG-d2.

Consider Cetuximab (antibody), for which the figures for the EC50 with FcγRI expressed on cells and with FcγRIIb were 0.0331 µM and 9.75 µM, respectively.
